The results in this text go back to ChEMBL document CHEMBL1139224, “Discovery and metabolic stabilization of potent and selective 2-amino-N-(adamant-2-yl) acetamide 11beta-hydroxysteroid dehydrogenase type 1 inhibitors” (J Med Chem, 2007).

By UniProt entry, the sequences of proteins in these tests, tags left out. Where a name states a change or a piece, a line headed by the entry shows the natural chain unless it says otherwise.
UniProt P28845: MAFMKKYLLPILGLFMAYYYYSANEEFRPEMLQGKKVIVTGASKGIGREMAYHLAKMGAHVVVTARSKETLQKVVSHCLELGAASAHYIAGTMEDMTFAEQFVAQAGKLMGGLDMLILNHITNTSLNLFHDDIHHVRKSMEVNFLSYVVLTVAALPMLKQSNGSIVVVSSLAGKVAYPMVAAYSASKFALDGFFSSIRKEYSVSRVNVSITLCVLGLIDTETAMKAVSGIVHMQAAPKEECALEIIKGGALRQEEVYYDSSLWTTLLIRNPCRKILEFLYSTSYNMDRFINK
UniProt P50172: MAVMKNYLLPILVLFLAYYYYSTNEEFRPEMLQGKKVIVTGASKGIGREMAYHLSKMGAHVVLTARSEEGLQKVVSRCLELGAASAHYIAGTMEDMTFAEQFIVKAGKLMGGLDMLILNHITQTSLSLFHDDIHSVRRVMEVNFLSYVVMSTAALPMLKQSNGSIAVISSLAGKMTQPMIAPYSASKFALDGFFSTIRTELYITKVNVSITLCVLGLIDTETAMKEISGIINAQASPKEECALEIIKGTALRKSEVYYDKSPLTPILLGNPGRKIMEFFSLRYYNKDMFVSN

Experiment [1] addresses T1, 11-beta-hydroxysteroid dehydrogenase 1 (Homo sapiens, UniProt P28845). Put plainly: Inhibition of human 11beta-HSD1 expressed in HEK293 cells by FPIA. In kind it is cell-based.
Experiment [2] deals with T1, 11-beta-hydroxysteroid dehydrogenase 1. Put plainly: Inhibition of human 11beta-HSD1 expressed in Escherichia coli by SPA.
Experiment [3] has as its target 11-beta-hydroxysteroid dehydrogenase 1 (Mus musculus, UniProt P50172). Kind of experiment: Inhibition of mouse 11beta-HSD1 expressed in Escherichia coli by SPA.

pIC50, pKi: −log10 of the molar value.

Consider `CC(C)(C(=O)N[C@H]1C2CC3CC1C[C@](O)(C3)C2)N1CCN(c2ccc(C(F)(F)F)cn2)CC1`, for which, in experiment [1], the pIC50 was 7.34. Also, the pKi in experiment [2] and in experiment [3] was 8.10 throughout.

Usually pIC50 stands for −log10 of the IC50, conventionally taken in molar units. Lower therefore signals a high IC50. The pKi is −log10 of the Ki, conventionally taken in molar units. A low value points to a large Ki.
